Results from PubChem BioAssay AID504326 (The Scripps Research Institute Molecular Screening Center, 2011).
“And” between values parts separate entries of the source, which are not always exact repeats. Equal entries are not always repeated. The entries are a selection whose mix differs from that of the whole data set. The source made the active and inactive calls. Cut-off read from the data, not from the text of the source: active = activation above about 18%; inactive = the rest.

The chains behind the UniProt entries cited, without tags or fusion partners.
UniProt P35372, whole entry, looked up: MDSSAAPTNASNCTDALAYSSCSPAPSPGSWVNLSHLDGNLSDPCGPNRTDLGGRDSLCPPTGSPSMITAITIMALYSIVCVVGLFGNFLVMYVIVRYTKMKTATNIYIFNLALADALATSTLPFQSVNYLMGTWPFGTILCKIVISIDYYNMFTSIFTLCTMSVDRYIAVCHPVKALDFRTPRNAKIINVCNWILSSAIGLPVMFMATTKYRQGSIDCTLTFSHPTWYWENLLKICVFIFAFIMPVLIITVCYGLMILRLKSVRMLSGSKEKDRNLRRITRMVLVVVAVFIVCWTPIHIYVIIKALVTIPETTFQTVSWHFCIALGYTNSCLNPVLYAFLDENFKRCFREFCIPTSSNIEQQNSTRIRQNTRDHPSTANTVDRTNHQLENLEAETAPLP
UniProt P41143, whole entry, looked up: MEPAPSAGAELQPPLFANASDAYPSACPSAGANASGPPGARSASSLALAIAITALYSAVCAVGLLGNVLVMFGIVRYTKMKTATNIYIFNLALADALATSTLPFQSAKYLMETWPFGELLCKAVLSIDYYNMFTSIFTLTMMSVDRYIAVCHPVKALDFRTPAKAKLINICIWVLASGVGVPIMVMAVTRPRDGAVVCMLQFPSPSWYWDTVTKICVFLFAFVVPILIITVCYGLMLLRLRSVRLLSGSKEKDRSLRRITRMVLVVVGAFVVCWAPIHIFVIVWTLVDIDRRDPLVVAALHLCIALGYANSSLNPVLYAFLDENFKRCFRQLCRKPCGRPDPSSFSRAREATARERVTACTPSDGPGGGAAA

Target: Mu-type opioid receptor (Homo sapiens) + Delta-type opioid receptor (Homo sapiens) (UniProt P35372+P41143)
Test: agonists of OPRM1-OPRD1 heterodimerization, primary screen, cell-based, luminescence (AID 504326);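 note: 0% = vehicle-treated cells and 100% = reference agonist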
Settings: cells, at 9.3 µM, stronger effect = higher value

Row | SMILES | activation
1 | O=[N+]([O-])c1cc([N+](=O)[O-])c(-c2ccn[nH]2)s1 | inactive: 7.33%
2 | O=C(Cn1cnc2c(NCc3ccccc3)ncnc21)NCCCc1ccccc1 | inactive: -2.46%
3 | Cc1nc2ccccc2n1C1CCN(Cc2nnnn2CCc2ccccc2)CC1 | inactive: 0.21%
4 | Oc1ccccc1CNc1nc2ccccc2n1CCN1CCCCC1 | inactive: 0.36%
5 | COC(=O)C1(C)COP(=O)(N2CCCCCC2)OC1 (stereo not drawn) | inactive: -0.18%
6 | CCC(C(=O)NC1CCCCC1)n1c(SCc2ccccc2F)nc2ccncc21 (stereo not drawn) | inactive: -1.94%
7 | COC(=O)c1ccc(CNC(=O)Cn2cnc3c(SC)nc(N)nc32)cc1 | inactive: -4.07%
8 | CC(C)c1ccc(OP(=O)(Nc2ccccn2)Oc2ccccc2F)cc1 (stereo not drawn) | inactive: 0.57%
9 | c1csc(CNc2nc3ccccc3n2CCN2CCOCC2)c1 | inactive: -2.78%
10 | N=c1n(CCN2CCCCC2)c2ccccc2n1CC(=O)c1cccc([N+](=O)[O-])c1 | inactive: 5.7%
11 | CCC(=O)Nc1nc2ccccc2n1CCN(CC)CC | inactive: 1.01%
12 | COc1ccccc1NC(=O)N1CCn2c(nc3ccccc32)C1 | inactive: 1.15%
13 | Cn1c(=O)c2c(ncn2CC(=O)N2CCN(c3cccc(Cl)c3)CC2)n(C)c1=O | inactive: -0.37%
14 | Cc1ccc2c(c1)C1CN(C)CCC1N2C(=O)CCCN1C(=O)c2cccc3cccc(c23)C1=O (stereo not drawn) | inactive: -1.74%
15 | CC(C)NC(=O)Cn1c(SCC(=O)c2ccc(F)cc2)nc2ccccc21 | inactive: -0.63%
16 | Cc1cc(C)c(CN2CCN(C(=O)Cn3cnc4c(NCc5ccccc5)ncnc43)CC2)c(C)c1 | inactive: 5.41%
17 | Cc1ccsc1/C=N/NC(=O)Cn1cnc2ccccc21 | inactive: -1.08%
18 | ClCCSc1nnc(-c2cccnc2)o1 | inactive: -2.55%
19 | CCOC(=O)CC[C@H](NC(=O)Cn1cnc2c(NCc3ccccc3)ncnc21)C(=O)OCC | inactive: -2.84%
20 | Cc1nc2ccccc2n1CC(=O)NCCN1CCCC1 | inactive: -2.38%

Row | SMILES | activation
21 | CC1(C)c2ccccc2N2CCC(=O)NC21/C=C/c1ccco1 (stereo not drawn) | inactive: -1.62%
22 | COc1ccc(CCNC(=O)[C@H](CCSC)NC(=O)N2CCn3c2nc2ccccc23)cc1OC | inactive: -2.27%
23 | CSc1nc(N)nc2c1ncn2CC(=O)N[C@H](C)c1cccc2ccccc12 | inactive: -0.74%
24 | Cc1ccc2nc3c(c(C)c2c1)CC(C(Cl)Cl)S3 (stereo not drawn) | inactive: -1.2%
25 | CN(C)CCn1cnc2c1c(=O)n(C)c(=O)n2C | inactive: -1.55%
26 | Cn1c(=O)c2c(nc(N3CCOCC3)n2CCNC2=NCCC2)n(C)c1=O | inactive: -3.51%
27 | COc1ccc(S(=O)(=O)N2CCCCC2)cc1NC(=O)Cn1cnc2c1c(=O)n(C)c(=O)n2C | inactive: -2.11%
28 | O=C(Cn1c(C(F)(F)F)nc2ccccc21)N/N=C/c1ccco1 | inactive: -1.88%
29 | CCOC(=O)Cn1c(=O)c2c(nc3n2CCN3Cc2ccccc2)n(C)c1=O | inactive: -1.31%
30 | Cc1ccc(OP(=O)(Nc2ccc([N+](=O)[O-])cn2)Oc2ccc(C)cc2)cc1 | inactive: -2.33%
31 | Fc1ccc2c(c1)nnn2C1CCN(Cc2ccccc2)CC1 | inactive: 0.34%
32 | COC(=O)[C@H](CCSC)NC(=O)Cn1cnc2c(NCc3ccccc3)ncnc21 | inactive: -1.98%
33 | CC(Cc1ccc(O)cc1)NCC(O)c1cc(O)cc(O)c1 (stereo not drawn) | inactive: -2.01%
34 | Brc1ccc(CNc2nc3ccccc3n2CCN2CCCCC2)cc1 | inactive: 3.1%
35 | COc1ccc(/C=N/NC(=O)Cn2c(Cc3ccc(OC)c(OC)c3)nc3ccccc32)cc1 | inactive: 0.12%
36 | CN1CCN(c2nc3c(c(=O)[nH]c(=O)n3C)n2CC(N)=O)CC1 | inactive: -3.26%
37 | CSc1nc2ccccc2n1CC(=O)Nc1c(C)cccc1C | inactive: 0.37%
38 | Cc1ccc(SCc2nc3ccccc3n2CC(=O)Nc2c(C)cccc2C)cc1 | inactive: 1.49%
39 | Cc1n[nH]c(C)c1S(=O)(=O)N1CCC(C(=O)N2CCn3c2nc2ccccc23)CC1 | inactive: -6.03%
40 | O=[As](O)(c1ccc(O)cc1)c1ccccc1O | inactive: -2.01%

Row | SMILES | activation
41 | COc1ccc(NC(=O)N2CCn3c2nc2ccccc23)cc1 | inactive: 0.22%
42 | C[As](=O)(O)c1cccc(C(=O)O)c1 | inactive: -3.23%
43 | O=[N+]([O-])c1ccc(-c2cc([N+](=O)[O-])c(O)c([N+](=O)[O-])c2)cc1 | inactive: -2.73%
44 | Cc1ccc(S(=O)(=O)Nc2ccc3c(c2)nc2n3CCN(Cc3ccccc3)C2)cc1 | inactive: -0.08%
45 | Cn1c(=O)c2c(ncn2CC(=O)N/N=C/C(Br)=C/c2ccccc2)n(C)c1=O | inactive: -0.87%
46 | CCN(CC)CCn1c(NCc2ccc3c(c2)OCO3)nc2ccccc21 | inactive: 0.04%
47 | O=C(NCc1ccccc1)N1CCn2c(nc3ccccc32)C1 | inactive: -2.13%
48 | O=C1Nc2ccccc2C12Nc1ccccc1-c1nc3ccccc3n12 (stereo not drawn) | inactive: -2.09%
49 | CC(NC(=O)[C@H](C)NC(=O)N1CCn2c1nc1ccccc12)c1ccccc1 (stereo partly drawn) | inactive: -2.93%
50 | Cc1ccccc1NC(=O)Cn1c(=O)n(C)c2ccccc21 | inactive: 0.73%
51 | Cc1ccccc1OCC(O)Cn1c(=N)n(CCN2CCOCC2)c2ccccc21 (stereo not drawn) | inactive: -0.54% and inactive: -0.95%
52 | CN1CCC(N(C)c2nc(-c3ccc([N+](=O)[O-])cc3)nc3ccccc23)CC1 | inactive: 5.72%
53 | O=C(Nc1ccc(F)cc1)N1CCn2c(nc3ccccc32)C1 | inactive: -0.49%
54 | C[C@H](NC(=O)N1CCn2c1nc1ccccc12)C(=O)NCc1ccco1 | inactive: -0.65%
55 | N=c1n(CCCOc2ccc(Br)cc2)c2ccccc2n1CC(N)=O | inactive: -1.74%
56 | Cc1ccc2c(c1)C1CN(C)CCC1N2S(=O)(=O)c1ccccc1F (stereo not drawn) | inactive: -1.88%
57 | CC(C)CN(C(=O)Cn1c(Cl)nc2c1c(=O)n(C)c(=O)n2C)C1CCS(=O)(=O)C1 (stereo not drawn) | inactive: -2.57%
58 | COc1ccc(NC(=O)Cn2c(NCC(C)O)nc3ccccc32)cc1Cl (stereo not drawn) | inactive: -3.6%
